The values below are quoted from earlier work in paper PMC7226360.

The chains behind the UniProt entries cited, without tags or fusion partners. Residues count along the entry.
UniProt O75113, 847-896: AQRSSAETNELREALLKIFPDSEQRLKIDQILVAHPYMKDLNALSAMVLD

This data set addresses ubiquitin (Homo sapiens) (UniProt P0CG48).

With N4BP1 847-896 (from UniProt O75113), the Kd is 50 µM.

A word on the Kd: it is a measure of binding affinity in units of concentration.
